Assay [1] concerns the target Muscarinic acetylcholine receptor M2 (Homo sapiens) (UniProt P08172). The assay can be described thus: Antimuscarinic activity on the acetylcholine-induced inhibition of contraction of guinea pig ileum which has M2 muscarinic receptor subtype; NA is not active. The settings on record: Cavia porcellus.
For assay [2], the target named is Cholinesterase (Homo sapiens) (UniProt P06276). In words: Anticholinesterase activity and the bimolecular rate constant was determined from the inhibition of butyrylcholinesterase purified from human serum.
Assay [3] addresses Muscarinic acetylcholine receptor M2 (Homo sapiens) (UniProt P08172). In words: Inhibition of carbachol-induced release of alpha-amylase from pancreatic acinar cells from that of rat ileum contained the Muscarinic acetylcholine receptor M2 subtypes; NA is not active. The settings on record: Cavia porcellus.
Assay [4] has the same target. The assay can be described thus: Inhibition of carbachol-induced release of alpha-amylase from pancreatic acinar cells from that of rat ileum contained the Muscarinic acetylcholine receptor M2 subtypes. The settings on record: Cavia porcellus.
Assay [5] shares this target. In words: Inhibition of carbachol-induced release of alpha-amylase from pancreatic acini cells from that of rat ileum contained the Muscarinic acetylcholine receptor M2 subtypes. The settings on record: Cavia porcellus.

The chains behind the UniProt entries cited, without tags or fusion partners.
UniProt P08172, whole entry, looked up: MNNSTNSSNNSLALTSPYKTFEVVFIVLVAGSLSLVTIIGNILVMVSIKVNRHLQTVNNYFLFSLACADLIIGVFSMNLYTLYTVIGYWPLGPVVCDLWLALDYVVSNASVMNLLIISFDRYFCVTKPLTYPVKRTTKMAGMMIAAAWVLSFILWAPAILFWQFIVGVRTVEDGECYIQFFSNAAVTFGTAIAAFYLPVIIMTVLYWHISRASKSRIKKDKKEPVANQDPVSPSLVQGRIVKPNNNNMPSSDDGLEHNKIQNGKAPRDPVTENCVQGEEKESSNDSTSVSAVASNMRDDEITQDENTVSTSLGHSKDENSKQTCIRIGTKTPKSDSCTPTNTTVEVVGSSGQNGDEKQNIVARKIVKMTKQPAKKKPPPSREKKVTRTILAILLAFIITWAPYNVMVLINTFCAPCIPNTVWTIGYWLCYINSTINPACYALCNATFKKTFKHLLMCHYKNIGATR
UniProt P06276, whole entry, looked up: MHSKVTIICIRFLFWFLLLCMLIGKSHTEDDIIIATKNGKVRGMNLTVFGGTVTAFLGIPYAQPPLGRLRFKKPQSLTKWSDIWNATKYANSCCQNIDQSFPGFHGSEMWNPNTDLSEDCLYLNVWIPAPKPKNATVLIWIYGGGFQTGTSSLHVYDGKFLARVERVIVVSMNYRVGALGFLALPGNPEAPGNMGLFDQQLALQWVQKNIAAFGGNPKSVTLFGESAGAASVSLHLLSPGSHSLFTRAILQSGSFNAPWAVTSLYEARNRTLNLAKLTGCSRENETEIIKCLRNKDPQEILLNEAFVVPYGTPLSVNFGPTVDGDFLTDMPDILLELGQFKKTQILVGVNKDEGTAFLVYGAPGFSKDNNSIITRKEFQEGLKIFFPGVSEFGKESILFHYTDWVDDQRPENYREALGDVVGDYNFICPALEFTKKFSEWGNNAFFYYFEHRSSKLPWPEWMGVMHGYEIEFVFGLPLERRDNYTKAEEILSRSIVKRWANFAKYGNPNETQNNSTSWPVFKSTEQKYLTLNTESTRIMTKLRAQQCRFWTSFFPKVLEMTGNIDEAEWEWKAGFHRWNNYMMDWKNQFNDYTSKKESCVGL

SMILES strings stand for the structures. Active and inactive are the calls of the source. The rule behind the calls is not given here.

Take `CCN(CC)CCOC(=O)C(C)(c1ccc(OC(=O)N(C)C)cc1)c1ccc(OC(=O)N(C)C)cc1`: the pA2 entry in assay [1] was “inactive”. The k3 in assay [2] is 233 M⁻¹ s⁻¹. For the same compound, the KB result in assay [3] is “inactive”. In the case of `CN(C)C(=O)Oc1ccc[n+](C)c1`, the k3 in assay [2] was found to be 567 M⁻¹ s⁻¹.

Consider `CCN(CC)CCOC(=O)C(C)(c1ccccc1)c1ccc(OC(=O)N(C)C)cc1` (stereo not drawn), for which the k3 in assay [2] is 11000 M⁻¹ s⁻¹. In assay [4], this compound displayed a Kb of 83 nM. As to `CCN(CC)CCOC(=O)C(C)(c1ccccc1)c1ccccc1`, in assay [4], the Kb amounted to 3.1 nM. Regarding `CCN(CC)CCOC(=O)C(C)(c1ccc(O)cc1)c1ccc(OC(=O)N(C)C)cc1` (stereo not drawn), the k3 in assay [2] turned out to be 5000 M⁻¹ s⁻¹. The same compound returned a Kb in assay [4] of 3200 nM.

In assay [4], `CCN(CC)CCOC(=O)C(C)(c1ccc(O)cc1)c1ccc(O)cc1` yielded a Kb of 2000 nM.

In assay [4], `CCN(CC)CCOC(=O)C(C)(c1ccccc1)c1ccc(O)cc1` (stereo not drawn) registered a Kb of 70 nM. On to `CCN(CC)CCOC(=O)C(C)(c1ccccc1)c1ccc(OC(=O)NC)cc1` (stereo not drawn), for which the Kb in assay [5] is 50 nM. Also, the k3 in assay [2] stood at 14200 M⁻¹ s⁻¹.

The values above are taken from ChEMBL document CHEMBL1124523, “Binary antidotes for organophosphate poisoning: aprophen analogues that are both antimuscarinics and carbamates” (1989).
